# PubChem BioAssay AID2751 (The Scripps Research Institute Molecular Screening Center, 2010)
# Protein sequences, listed by entry. Tags and fused reporters are not part of them.
# UniProt Q4J6C6, whole entry: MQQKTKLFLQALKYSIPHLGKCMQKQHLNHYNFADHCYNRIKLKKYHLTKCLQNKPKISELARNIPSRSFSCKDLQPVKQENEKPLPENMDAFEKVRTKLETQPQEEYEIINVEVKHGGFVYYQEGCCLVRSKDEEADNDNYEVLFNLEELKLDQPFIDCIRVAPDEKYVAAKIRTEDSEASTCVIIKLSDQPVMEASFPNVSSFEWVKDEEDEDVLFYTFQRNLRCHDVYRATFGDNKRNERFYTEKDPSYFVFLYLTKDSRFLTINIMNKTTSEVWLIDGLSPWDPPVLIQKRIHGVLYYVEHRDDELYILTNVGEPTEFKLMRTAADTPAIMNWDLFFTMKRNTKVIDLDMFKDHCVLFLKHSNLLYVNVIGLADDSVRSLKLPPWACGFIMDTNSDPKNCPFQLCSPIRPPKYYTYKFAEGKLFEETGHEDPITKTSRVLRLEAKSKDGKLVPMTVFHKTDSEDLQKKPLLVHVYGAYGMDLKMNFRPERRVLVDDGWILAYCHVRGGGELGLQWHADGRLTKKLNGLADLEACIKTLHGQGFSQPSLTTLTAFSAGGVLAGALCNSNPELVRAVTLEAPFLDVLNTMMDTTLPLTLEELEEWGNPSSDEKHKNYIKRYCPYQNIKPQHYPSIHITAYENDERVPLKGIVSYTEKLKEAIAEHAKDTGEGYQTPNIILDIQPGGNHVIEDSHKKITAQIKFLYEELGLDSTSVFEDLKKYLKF
# The entries are a selection whose mix differs from that of the whole data set. Activity calls are given as the source filed them. No stated cut-off is given here; in the data, active means inhibition above about 43%; inactive means the rest.
# Biological target: Prolyl endopeptidase-like (Homo sapiens) (UniProt Q4J6C6)
# Experiment: PREPL enzyme inhibitors, primary screen, biochemical, fluorescence polarization (AID 2751);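 further: 0% = enzyme with DMSO and 100% = wells lacking enzyme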
# Conditions: recombinant PREPL, fluorescence polarization activity-based probe; at 5.96 µM; active compounds read high
row,SMILES,inhibition
1,COc1cc(I)ccc1[As](=O)(O)O,inactive: 12.4%
